This passage reports IC50 results from EP1147080B1 (Wyeth Holdings Corporation, priority 1999, dated 2000).

Amino acid sequences for entries named in this document (tags omitted). Residues count along the entry.
UniProt P78536, 215-824: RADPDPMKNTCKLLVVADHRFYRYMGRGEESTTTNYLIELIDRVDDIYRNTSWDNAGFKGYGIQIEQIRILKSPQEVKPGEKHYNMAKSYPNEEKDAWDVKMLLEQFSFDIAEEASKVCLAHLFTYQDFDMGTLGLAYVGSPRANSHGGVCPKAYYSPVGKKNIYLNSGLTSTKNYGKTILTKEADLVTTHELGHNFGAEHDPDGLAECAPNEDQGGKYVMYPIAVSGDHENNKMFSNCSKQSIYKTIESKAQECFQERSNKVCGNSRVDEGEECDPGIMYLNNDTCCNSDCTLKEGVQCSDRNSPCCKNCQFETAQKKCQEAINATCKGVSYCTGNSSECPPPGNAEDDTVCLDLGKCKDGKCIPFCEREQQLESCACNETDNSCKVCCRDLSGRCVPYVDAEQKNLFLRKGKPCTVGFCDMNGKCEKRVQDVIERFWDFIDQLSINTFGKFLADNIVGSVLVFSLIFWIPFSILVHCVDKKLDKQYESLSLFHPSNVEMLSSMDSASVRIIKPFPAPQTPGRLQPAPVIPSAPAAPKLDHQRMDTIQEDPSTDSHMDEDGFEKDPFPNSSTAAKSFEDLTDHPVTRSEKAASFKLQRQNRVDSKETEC

This assay addresses TNF-α converting enzyme (TACE) (Homo sapiens, UniProt P78536). Description: Test procedure for measuring TACE inhibition (fluorescent peptidyl substrate). To be noted: second table; IC50 (nM) per footnote a. Type of assay: biochemical.

Take `CC#CCOc1ccc(S(=O)(=O)C(C(=O)NO)c2cccc(Cl)c2)cc1` (stereo not shown) [Example 84, 2-{[4-(2-butynyloxy)phenyl]sulfonyl}-2-(3-chlorophenyl)-N-hydroxyacetamide]: the IC50 came to 145 nM.
